Assay results from US9944624B2 (dated 2018).

By UniProt entry, the sequences of proteins in these tests, tags left out. Residues count along the entry.
UniProt Q13231, 22-466: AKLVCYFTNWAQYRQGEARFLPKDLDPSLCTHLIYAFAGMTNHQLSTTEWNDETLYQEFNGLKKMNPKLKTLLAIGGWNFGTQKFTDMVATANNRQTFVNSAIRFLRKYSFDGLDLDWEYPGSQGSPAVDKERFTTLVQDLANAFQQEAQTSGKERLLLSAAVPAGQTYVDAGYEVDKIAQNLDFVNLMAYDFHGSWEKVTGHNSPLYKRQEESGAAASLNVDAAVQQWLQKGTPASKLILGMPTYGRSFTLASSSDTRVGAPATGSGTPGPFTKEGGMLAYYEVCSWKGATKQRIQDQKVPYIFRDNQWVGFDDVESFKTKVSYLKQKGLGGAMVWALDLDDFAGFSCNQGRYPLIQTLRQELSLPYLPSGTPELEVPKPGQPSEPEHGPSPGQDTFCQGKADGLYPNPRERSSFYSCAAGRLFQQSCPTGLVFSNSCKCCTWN

Target: recombinant human CHIT1 (Homo sapiens (Human), UniProt Q13231)
Test: Human CHIT1 activity assay (fluorescent 4MU substrate)
Type: biochemical

pIC50: 6.00 to 7.00
Compound: CO[C@H]1CN(c2n[nH]c(N)n2)CC[C@@H]1N1C[C@H](C)OC[C@@H]1Cc1ccc(Cl)cc1 [Example 54, 3-((3 S,4S)-4-((2S,5S)-5-(4-chlorobenzyl)-2-methylmorpholino)-3-methoxypiperidin-1-yl)-1H-1,2,4-triazol-5-amine]

pIC50: −log10 of the molar value.
